From patent US8652473B2, “Antibodies to EGF receptor epitope peptides and uses thereof” (Ludwig Institute for Cancer Research Ltd., priority 2004, dated 2014)

Tests used:
Set-up in all cases: species or system human
[1] = tested on: mAb 806 binding to the 1-501 and 274-501 EGFR fragments; assay: Peptide competition of mAb 806 immunoblotting; settings: 100-fold molar excess of competing peptide
[2] = tested on: mAb 806 binding to immobilized 1-501 EGFR fragment; assay: ELISA, peptide inhibition of mAb […] binding to 1-501 EGFR; settings: peptide in solution, increasing concentrations
[3] = tested on: mAb 806 binding to immobilized 287-302 EGFR peptide; assay: BIAcore, soluble EGFR peptides blocking mAb 806 binding; settings: mAb […] 500 nM; soluble peptide 5 and 10 μM; amine coupling
Protocol: FIG. 5A-5B. Analysis of mAb 806 binding to peptides by BIAcore. A, The 287-302 EGFR peptide was immobilized on the surface by thiol coupling and the mAb 806 antibody passed over at increasing concentrations (31.25, 62.5, 125, 250, 500 and 1000 nM). Binding affinity was then determined by Scatchard analysis (insert). B, The 287-302 EGFR peptide was immobilized on the surface by amine coupling and the mAb 806 antibody at a concentration of 500 nM was passed over the surface in the presence of the 287-302 (upper panel), 287-298 (middle panel) or 287-301 (lower panel) EGFR peptides (5 and 10 μM).
A BIAcore 3000 was used for all experiments. The peptides containing the putative mAb 806 epitope were immobilised on a CM5 sensor chip using amine or thiol-disulphide exchange coupling at a flow rate of 5 μl/min (34). The 806 antibody was passed over the sensor surface at a flow rate of 5 μl/min at 25° C. The surfaces were generated between runs by injecting 10 mM HCl at a flow rate of 10 μl/min.

[4] = tested on: mAb 806 binding to immobilized 501-Fc; assay: ELISA, peptide inhibition of mAb 806 binding to 501-Fc; settings: increasing concentrations of peptide

CGADSYEMEEDGVRKC (epitope peptide) [287-302 EGFR peptide]
inhibition of mAb […] binding in immunoblot [1]: able to inhibit
inhibition of mAb […] binding to immobilized 1-501 fragment (ELISA) [2]: able to inhibit
inhibition of mAb […] binding to immobilized 287-302 EGFR peptide (BIAcore) [3]: inhibited mAb 806 binding in a dose dependent manner

CGADSYEMEEDGVRKC [Oxidized 287-302 EGFR peptide, prepared by overnight aerial oxidation in alkaline conditions]
inhibition of mAb […] binding to 501-Fc (ELISA) [4]: inhibited binding of mAb 806 to 501-Fc in a dose dependent manner

S-carboxymethylated 287-302 EGFR peptide: 287-302 peptide reacted with dithiothreitol followed by iodoacetamide (CGADSYEMEEDGVRKC)
inhibition of mAb […] binding to 501-Fc (ELISA) [4]: unable to inhibit
